Test results from patent US20090022669A1, “COMPOSITIONS FOR PROTEIN DELIVERY VIA THE PULMONARY ROUTE” (VAPOTRONICS, INC., priority 2001, published 2009).

Assay: Molecular assays (HPLC, mass spectrometry, isoelectric focusing, immunoassay) of recovered aerosol versus initial formulation
Type: physicochemical
Conditions: FSH 150 ng/mL
Description: Proteins were tested with a transgenic cell bioassays with receptors introduced to the cells specific to the test protein. These bioassays were appropriate for indicating the functional effectiveness of the protein. Molecular assays were performed to indicate the primary or tertiary structure of the molecule. Assays used included size exclusion high performance liquid chromatography, reverse phase high performance liquid chromatography, mass spectrometry, isoelectric focusing and immunoassay.
Each protein was formulated at a concentration that was calculated to be of clinical significance such that the plume of aerosol contained the required amount of therapeutic. Humectant was added to the protein formulation which was filled into an inkjet cartridge and fired from the cartridge.
Resistor surfaces and nozzles were inspected by Scanning Electron Microscopy to establish the cleanliness of the surfaces and subsequently the effectiveness of the humectant and surfactant. When humectant and surfactant concentrations were suitable, the aerosol from the device was collected, analyzed, and compared with the solution before aerosolization.
During testing, it was useful to ensure that the composition of the aerosol emanating from the device was the same in all discernable aspects as the formulation filled into the device. […]

follicle stimulating hormone
mass spectrometry, HPLC, isoelectric focussing and immunoassay comparison of recovered aerosol and initial formulation: no difference
